Results on one compound are retold here after publication PMC4414916 (Biochemistry, 2015).

Chains of the proteins cited; added tags and fusions are not shown. Residues count along the entry.
UniProt Q7NDN8, 44-359, stated change not applied: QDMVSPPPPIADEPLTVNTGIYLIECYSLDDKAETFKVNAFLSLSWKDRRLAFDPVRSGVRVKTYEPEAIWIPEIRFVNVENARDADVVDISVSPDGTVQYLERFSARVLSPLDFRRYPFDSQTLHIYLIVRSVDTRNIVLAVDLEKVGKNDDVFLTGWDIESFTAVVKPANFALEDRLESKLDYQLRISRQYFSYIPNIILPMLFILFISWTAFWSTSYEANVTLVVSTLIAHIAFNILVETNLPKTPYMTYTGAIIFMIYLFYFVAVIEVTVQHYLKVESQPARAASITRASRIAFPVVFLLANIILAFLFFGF

Holding throughout (assay): cell-based
The target in assay [1] is GLIC–eukaryotic–ICD chimeras (Gloeobacter violaceus, UniProt Q7NDN8).
For assay [2], the target named is GLIC–5-HT3A 1B (Gloeobacter violaceus, UniProt Q7NDN8).
The target in assay [3] is GLIC–GABAAρ1 0B (Gloeobacter violaceus, UniProt Q7NDN8).
Assay [4] deals with GLIC–5-HT3A 0B (Gloeobacter violaceus, UniProt Q7NDN8).
Assay [5] addresses WT GLIC (Gloeobacter violaceus, UniProt Q7NDN8).
The target in assay [6] is GLIC–GABAAρ1 1B (Gloeobacter violaceus, UniProt Q7NDN8).
Assay [7] has as its target GLIC–Glyα1 0B (Gloeobacter violaceus, UniProt Q7NDN8).
The target in assay [8] is GLIC–nAChα7 OB (Gloeobacter violaceus, UniProt Q7NDN8).
For assay [9], the target named is GLIC–nAChα7 1B (Gloeobacter violaceus, UniProt Q7NDN8).
Assay [10] concerns the target GLIC–Glyαl 1B (Gloeobacter violaceus, UniProt Q7NDN8). The following applies: IC50, TBA inhibition of pH 4.5-induced currents, GLIC–Glyα1 1B.
[11] abbreviates: IC50, TBA inhibition of pH 4.5-induced currents.
[12] abbreviates: log IC50, TBA inhibition of pH 4.5-induced currents, ± standard error.

In the case of `CCCC[N+](CCCC)(CCCC)CCCC` [TBA, tetrabutylammonium], the IC50 in assay [1] is 100 to 2000 µM; in [2] (IC50, TBA inhibition of pH 4.5-induced currents, GLIC–5-HT3A 1B), 125 µM; in assay [2] (IC50, text value, GLIC–5HT3A 1B chimera, pH 4.5), 100 µM; in assay [2] (log IC50, TBA inhibition of pH 4.5-induced currents, GLIC–5-HT3A 1B, ± standard error) it was 120 µM; in [3] (IC50, TBA inhibition of pH 4.5-induced currents, GLIC–GABAAρ1 0B), 2060 µM; in assay [3] (IC50, text value, GLIC–GABAAρ1 0B chimera, pH 4.5), 2000 µM. The IC50 is 2000 µM in [3] (log IC50, TBA inhibition of pH 4.5-induced currents, GLIC–GABAAρ1 0B, ± standard error); 120 µM in assay [4] (IC50, TBA inhibition of pH 4.5-induced currents, GLIC–5-HT3A 0B); 100 µM in assay [4] (IC50, text value, GLIC–5HT3A 0B chimera, pH 4.5); 95.5 µM in assay [4] (log IC50, TBA inhibition of pH 4.5-induced currents, GLIC–5-HT3A 0B, ± standard error); 500 µM in assay [5] (IC50, text value, wild-type GLIC, pH 4.5); 457 µM in assay [5] (log IC50, TBA inhibition of pH 4.5-induced currents, WT GLIC, ± standard error). In addition, the IC50 in [6] (setting [11]) is 1040 µM; in assay [6] (setting [12]), 912 µM; in assay [7] (setting [11]), 327 µM; in assay [7] (setting [12]), 295 µM; in assay [8] (setting [11]), 392 µM; in assay [8] (setting [12]), 363 µM. The IC50 in assay [9] (setting [11]) was 525 µM; in assay [9] (setting [12]), 501 µM; in [10], 456 µM.
